# Values quoted from earlier work as cited in publication PMC11316633 (European journal of medicinal chemistry, 2024).
# Target: CDK7/Cyclin H/MAT1
# Settings: CDK7, covalent inhibitor; cited from earlier work
smiles,measurement,value
C=CC(=O)Nc1ccc(C(=O)Nc2n[nH]c3c2CN(C(=O)N[C@@H](CN(C)C)c2ccccc2)C3(C)C)cc1 [YKL-5–124],Kinact/ki,103 nM^−1μS^−1
